Laboratory results from patent US10933169B2, “Bone morphogenetic protein pathway activation, compositions for ossification, and methods related thereto” (Emory University, priority 2012, dated 2021).

Test system: BMP-induced ALP activity in C2C12 cells
Assay: BMP-induced alkaline phosphatase (ALP) potentiation assay in C2C12 cells
Conditions: sub-optimal doses of BMP in the presence or absence of exogenously added noggin, relative to BMP alone control

O=C(O)CNc1ccc([As](=O)(O)O)cc1
Fold-increase of BMP-induced ALP (over BMP alone control): 2.5 fold
